Laboratory results published in patent US9452997B2, “Piperidine and piperazine derivatives as autotaxin inhibitors” (Merck Patent GmbH, priority 2009, dated 2016).

Target: Recombinant autotaxin (Homo sapiens, UniProt Q13822)
Experiment: Autotaxin assay (Amplex Red, LPC substrate)
Details: read-out: IC50 value, Amplex Red detection, values given as upper bounds
Procedure: Autotaxin activity is measured indirectly by means of Amplex Red Reagent. In this course, Amplex Red is measured as fluorogenic indicator for generated H2O2. Autotaxin converts substrate lysophosphatidylcholine (LPC) to phosphocholine and lysophosphatidylic acid (LPA). After the conversion phosphocholine is reacted with alkaline phosphatase to obtain inorganic phosphate and choline. During the next step choline is oxidized with choline oxidase to yield betaine, whereby H2O2 is generated. H2O2 reacts with Amplex Red Reagent in the presence of peroxidase (Horseradish peroxidase) in an 1:1 stochiometry and yields highly fluorescent resorufin. The generated fluorescence is measured in a reaction-dependent kinetic mode in order to enable subtraction of fluorescence signals of possible other fluorescent compounds that are not part of the reaction from total measured fluorescence. […]
Thereafter, the reaction is started through the addition of 5 μL-a-lysophosphatidyl-choline (LPC), whereby the final concentration of LPC is 75 μM. […] The fluorescence is immediately measured at a wavelength of 612 nm with an excitation wavelength of 485 nm in a “Tecan Ultra multimode” fluorescence reader. The activity of autotaxin is indirectly calculated via the amount of detected generated H2O2. […]
IC50 values were calculated on normalized data. […]

IC50: < 1000 nM
Structure (SMILES): O=C(CCc1ccc([N+](=O)[O-])cc1)N1CCC(N2CCN(C(=O)c3ccc4[nH]nnc4c3)CC2)CC1
